This is an account of results in patent US5821239A (priority 1996, dated 1998).

In the assay the target is Brain AChE (acetylcholinesterase, rat striatum) (Rattus norvegicus, UniProt P37136). The following applies: read-out: Inhibitory Concentration Brain AChE; rat striatum homogenate; acetylthiocholine 5 mM final, DTNB 0.25 mM; pH 7.2; 10 min preincubation at 37° C.
With `CN(C)C(=O)Oc1cnccc1N=CN1CCCC1`, the IC50 worked out at 9.38 µM.

On to `CN(C)C(=O)Oc1cnccc1N=CN1CCCCC1`, for which the IC50 amounted to 47.1 µM.

Turning to `CN(C)C=Nc1ccncc1OC(=O)N(C)C`, the IC50 was found to be 83 µM.

As for `CN(C)C(=O)Oc1cnccc1N`, the IC50 is 13.4 µM.
